Reference: patent EP1147080B1 (Wyeth Holdings Corporation, priority 1999, dated 2000)

Chains of the proteins cited; added tags and fusions are not shown. Residues count along the entry.
UniProt P78536, 215-824: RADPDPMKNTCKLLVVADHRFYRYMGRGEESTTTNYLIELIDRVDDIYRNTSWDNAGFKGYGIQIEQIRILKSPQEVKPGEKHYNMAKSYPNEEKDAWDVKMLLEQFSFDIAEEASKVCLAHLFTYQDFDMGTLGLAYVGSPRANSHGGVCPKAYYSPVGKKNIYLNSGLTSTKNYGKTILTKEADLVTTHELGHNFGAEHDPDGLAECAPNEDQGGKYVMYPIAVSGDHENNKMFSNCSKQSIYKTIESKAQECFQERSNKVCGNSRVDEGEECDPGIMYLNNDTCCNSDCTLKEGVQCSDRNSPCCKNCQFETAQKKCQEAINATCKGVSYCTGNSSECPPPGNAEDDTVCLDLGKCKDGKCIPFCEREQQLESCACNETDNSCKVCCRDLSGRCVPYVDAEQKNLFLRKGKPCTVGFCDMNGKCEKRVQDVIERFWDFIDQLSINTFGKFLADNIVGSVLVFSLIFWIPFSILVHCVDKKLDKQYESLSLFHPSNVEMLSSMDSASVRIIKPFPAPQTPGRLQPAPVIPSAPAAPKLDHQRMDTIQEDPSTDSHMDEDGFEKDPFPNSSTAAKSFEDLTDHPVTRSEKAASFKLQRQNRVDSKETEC

Biological target: TNF-α converting enzyme (TACE) (Homo sapiens, UniProt P78536)
Assay: Test procedure for measuring TACE inhibition (fluorescent peptidyl substrate)
Type: biochemical
Conditions: second table; IC50 (nM) per footnote a

`CC#CCOc1ccc(S(=O)(=O)C(C(=O)NO)c2cccc(Cl)c2)cc1` (stereo not shown) [Example 84, 2-{[4-(2-butynyloxy)phenyl]sulfonyl}-2-(3-chlorophenyl)-N-hydroxyacetamide] gave an IC50 of 145 nM.
